Test system: patients with sorafenib pretreated advanced hepatocellular carcinoma (aHCC)
Assay: Phase 1b dose escalation ('3 + 3'): DLTs and adverse events
Type: in vivo
Settings: N = 17
Procedure: Additional patients were enrolled at the RP2D.
The primary endpoint in Phase 1b was incidence of dose-limiting toxicities (DLTs) during Cycle 1. Details of DLTs are defined in Supplementary Table 3. Pharmacokinetics (PK) endpoints, including Cmax, and area under the concentration–time curve over the dosing interval at steady state (AUCτ,ss), were evaluated at Cycle 1, Day 15 as a secondary endpoint in Phase 1b. Selected efficacy measures were evaluated as secondary endpoints in Phase 1b.
In Phase 1b, DLTs were assessed during Cycle 1 in all patients who received ≥80% of the planned cumulative dose of tepotinib and patients who stopped treatment due to a DLT. Patients who were replaced during Cycle 1 were excluded from the analysis set.

## CN1CCC(COc2cnc(-c3cccc(Cn4nc(-c5cccc(C#N)c5)ccc4=O)c3)nc2)CC1 [tepotinib]
  patients with an AE of any cause: 94.1%

— article PMC8292404, “Phase 1b/2 trial of tepotinib in sorafenib pretreated advanced hepatocellular carcinoma with MET overexpression” (British Journal of Cancer, 2021)
